Where two headings read alike, the source gives them in different places.
Experiments:
[1] = Description: One measure of the effectiveness of a solvent for extracting solutes is termed the distribution coefficient, which is calculated as follows in Formula (1):
DC=(Wo/Ws)ext/(Wo/Ww)raff (1)
The slope of this line is the distribution coefficient.

[2] = butanol, ABE feed, cetyl alcohol/mixed xylenes 50/50 wt %
[3] = butanol, ABE solution in water, mixed xylenes 5:1, 40° C., feed Wo/Ww 0.005
[4] = butanol, ABE solution in water, mixed xylenes 5:1, 40° C., feed Wo/Ww 0.01
[5] = butanol, ABE solution in water, mixed xylenes 5:1, 40° C., feed Wo/Ww 0.02
[6] = butanol, ABE solution in water, mixed xylenes 5:1, 40° C., feed Wo/Ww 0.025
[7] = butanol, ABE solution in water, mixed xylenes 5:1, 40° C., feed Wo/Ww 0.03
[8] = butanol, ABE solution in water, mixed xylenes 5:1, 75° C., feed Wo/Ww 0.005
[9] = butanol, ABE solution in water, mixed xylenes 5:1, 75° C., feed Wo/Ww 0.01
[10] = butanol, ABE solution in water, mixed xylenes 5:1, 75° C., feed Wo/Ww 0.02
[11] = butanol, ABE solution in water, mixed xylenes 5:1, 75° C., feed Wo/Ww 0.025
[12] = butanol, ABE solution in water, mixed xylenes 5:1, 75° C., feed Wo/Ww 0.03
[13] = n-butanol in water, mixed xylenes 5:1, 22° C., feed Wo/Ww 0.01
[14] = n-butanol in water, mixed xylenes 5:1, 22° C., feed Wo/Ww 0.02
[15] = n-butanol in water, mixed xylenes 5:1, 22° C., feed Wo/Ww 0.04
[16] = n-butanol in water, mixed xylenes 5:1, 22° C., feed Wo/Ww 0.06
[17] = n-butanol in water, mixed xylenes 5:1, 40° C., feed Wo/Ww 0.01
[18] = n-butanol in water, mixed xylenes 5:1, 40° C., feed Wo/Ww 0.02
[19] = n-butanol in water, mixed xylenes 5:1, 40° C., feed Wo/Ww 0.04
[20] = n-butanol in water, mixed xylenes 5:1, 40° C., feed Wo/Ww 0.06

## n-butanol
[1]; [3]
  Extract (Wo/Ws): 0.0016 Wo/Ws
  Raffinate (Wo/Ww): 0.0018 Wo/Ww
[1]; [4]
  Extract (Wo/Ws): 0.0008 Wo/Ws
  Raffinate (Wo/Ww): 0.0009 Wo/Ww
[1]; [5]
  Extract (Wo/Ws): 0.0031 Wo/Ws
  Raffinate (Wo/Ww): 0.0038 Wo/Ww
[1]; [6]
  Extract (Wo/Ws): 0.0043 Wo/Ws
  Raffinate (Wo/Ww): 0.0043 Wo/Ww
[1]; [7]
  Extract (Wo/Ws): 0.0054 Wo/Ws
  Raffinate (Wo/Ww): 0.0052 Wo/Ww
[1]; [8]
  Extract (Wo/Ws): 0.0009 Wo/Ws
  Raffinate (Wo/Ww): 0.0005 Wo/Ww
[1]; [9]
  Extract (Wo/Ws): 0.0018 Wo/Ws
  Raffinate (Wo/Ww): 0.0009 Wo/Ww
[1]; [10]
  Extract (Wo/Ws): 0.0036 Wo/Ws
  Raffinate (Wo/Ww): 0.0019 Wo/Ww
[1]; [11]
  Extract (Wo/Ws): 0.0047 Wo/Ws
  Raffinate (Wo/Ww): 0.0025 Wo/Ww
[1]; [12]
  Extract (Wo/Ws): 0.0059 Wo/Ws
  Raffinate (Wo/Ww): 0.0030 Wo/Ww
[1]; butanol, dilute acetone/n-butanol/ethanol in water/mixed xylenes, solvent:feed 5:1, 40° C.
  Distribution Coefficient: 0.9677
[1]; butanol, dilute acetone/n-butanol/ethanol in water/mixed xylenes, solvent:feed 5:1, 75° C.
  Distribution Coefficient: 1.9257
[1]; [13]
  Extract (Wo/Ws): 0.0036 Wo/Ws
  Raffinate (Wo/Ww): 0.0054 Wo/Ww
[1]; [14]
  Extract (Wo/Ws): 0.0017 Wo/Ws
  Raffinate (Wo/Ww): 0.0027 Wo/Ww
[1]; [15]
  Extract (Wo/Ws): 0.0070 Wo/Ws
  Raffinate (Wo/Ww): 0.0103 Wo/Ww
[1]; [16]
  Extract (Wo/Ws): 0.0106 Wo/Ws
  Raffinate (Wo/Ww): 0.0141 Wo/Ww
[1]; [17]
  Extract (Wo/Ws): 0.0075 Wo/Ws
  Raffinate (Wo/Ww): 0.0069 Wo/Ww
[1]; [18]
  Extract (Wo/Ws): 0.0039 Wo/Ws
  Raffinate (Wo/Ww): 0.0037 Wo/Ww
[1]; [19]
  Extract (Wo/Ws): 0.0117 Wo/Ws
  Raffinate (Wo/Ww): 0.0098 Wo/Ww
[1]; [20]
  Extract (Wo/Ws): 0.0021 Wo/Ws
  Raffinate (Wo/Ww): 0.0018 Wo/Ww
[1]; n-butanol, water/mixed xylenes, solvent:feed 5:1, 22° C.
  Distribution Coefficient: 0.7195
[1]; n-butanol, water/mixed xylenes, solvent:feed 5:1, 40° C.
  Distribution Coefficient: 1.1494
[2]; 5:1, 40° C., feed Wo/Ww 0.03
  Extract (Wo/Ws): 0.0008 Wo/Ws
  Raffinate (Wo/Ww): 0.0003 Wo/Ww
[2]; 5:1, 40° C., feed Wo/Ww 0.06
  Extract (Wo/Ws): 0.0017 Wo/Ws
  Raffinate (Wo/Ww): 0.0006 Wo/Ww
[2]; 5:1, 40° C., feed Wo/Ww 0.060
  Extract (Wo/Ws): 0.00113 Wo/Ws
  Raffinate (Wo/Ww): 0.00038 Wo/Ww
[2]; 5:1, 40° C., feed Wo/Ww 0.12
  Extract (Wo/Ws): 0.0037 Wo/Ws
  Raffinate (Wo/Ww): 0.0011 Wo/Ww
[2]; 5:1, 40° C., feed Wo/Ww 0.16
  Extract (Wo/Ws): 0.0050 Wo/Ws
  Raffinate (Wo/Ww): 0.0014 Wo/Ww
[2]; 5:1, 40° C., feed Wo/Ww 0.20
  Extract (Wo/Ws): 0.0058 Wo/Ws
  Raffinate (Wo/Ww): 0.0017 Wo/Ww
[2]; 5:1, 75° C., feed Wo/Ww 0.03
  Extract (Wo/Ws): 0.0008 Wo/Ws
  Raffinate (Wo/Ww): 0.0002 Wo/Ww
[2]; 5:1, 75° C., feed Wo/Ww 0.06
  Extract (Wo/Ws): 0.0017 Wo/Ws
  Raffinate (Wo/Ww): 0.0005 Wo/Ww
[2]; 5:1, 75° C., feed Wo/Ww 0.060
  Extract (Wo/Ws): 0.00129 Wo/Ws
  Raffinate (Wo/Ww): 0.00026 Wo/Ww
[2]; 5:1, 75° C., feed Wo/Ww 0.12
  Extract (Wo/Ws): 0.0039 Wo/Ws
  Raffinate (Wo/Ww): 0.0010 Wo/Ww
[2]; 5:1, 75° C., feed Wo/Ww 0.16
  Extract (Wo/Ws): 0.0049 Wo/Ws
  Raffinate (Wo/Ww): 0.0012 Wo/Ww
[2]; 5:1, 75° C., feed Wo/Ww 0.20
  Extract (Wo/Ws): 0.0060 Wo/Ws
  Raffinate (Wo/Ww): 0.0014 Wo/Ww
